## Measured affinities in a library of Ab-14 heavy chain variants

Data: MIT Lincoln Laboratory AlphaSeq set, Engelhart et al. 2022, doi:10.1038/s41597-022-01779-4, as distributed in FLAb.

All variants were tested on one target, the spike HR2 peptide PDVDLGDISGINAS (SARS-CoV-2).

Parent scFv Ab-14: VH joined to VL by a (GGGGS)3 linker. Changes lie in the heavy chain CDRs alone.
VH: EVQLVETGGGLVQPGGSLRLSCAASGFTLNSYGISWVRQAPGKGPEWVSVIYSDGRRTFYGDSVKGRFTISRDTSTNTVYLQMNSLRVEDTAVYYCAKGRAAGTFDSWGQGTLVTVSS
VL: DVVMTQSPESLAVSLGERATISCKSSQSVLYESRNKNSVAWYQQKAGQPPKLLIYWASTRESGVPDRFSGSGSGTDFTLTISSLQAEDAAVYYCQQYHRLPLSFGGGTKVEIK

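The starting antibody came from a phage panning campaign against this peptide. Library AAYL49 holds single substitutions and randomly drawn double and triple substitutions in the CDRs. Affinity was read by AlphaSeq, a pooled yeast mating assay with surface-displayed partners. Binding brings cells together so that they mate, and sequencing counts the barcode pairs among the diploids. Scores were corrected for input abundance and mapped to Kd with protein pairs of known affinity run in the same pool. There are three technical replicates.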

Positions count from residue 1 of the parent VH; D54S puts S in place of D. Numbers give log10(Kd / nM), so 0 is 1 nM and 3 is 1 µM. Smaller is tighter. A mean of the replicates is given; it leaves out those without a signal. Where no diploid with the target was found in that replicate, the entry reads "n.d.": below detection, most likely a poor binder, though not proof of it.

{"changes": "D54S+Y60I+T104V", "log10 Kd, replicates": "n.d. n.d. n.d.", "log10 Kd (nM), mean": "n.d.", "empty controls": "1/9 (2.92)"}
{"changes": "S31I+R56M+S107A", "log10 Kd, replicates": "n.d. n.d. 2.71", "log10 Kd (nM), mean": "2.71", "empty controls": "1/9 (3.09)"}
{"changes": "T58N+D62A+G103Y", "log10 Kd, replicates": "n.d. n.d. n.d.", "log10 Kd (nM), mean": "n.d.", "empty controls": "3/9 (4.00)"}
{"changes": "D54P+G61I", "log10 Kd, replicates": "4.94 4.36 5.08", "log10 Kd (nM), mean": "4.79", "empty controls": "8/9 (4.81)"}
{"changes": "I34K+R56Y+Y60Q", "log10 Kd, replicates": "5.28 n.d. 4.45", "log10 Kd (nM), mean": "4.87", "empty controls": "1/9 (4.43)"}
{"changes": "S31M+Y52W+D54A", "log10 Kd, replicates": "n.d. n.d. n.d.", "log10 Kd (nM), mean": "n.d.", "empty controls": "0/9"}
{"changes": "T28L+R56V+D106C", "log10 Kd, replicates": "n.d. n.d. n.d.", "log10 Kd (nM), mean": "n.d.", "empty controls": "2/9 (4.95)"}
{"changes": "G103T+T104S+F105K", "log10 Kd, replicates": "1.94 1.72 2.36", "log10 Kd (nM), mean": "2.01", "empty controls": "0/9"}
{"changes": "R56T+G61N+S63Y", "log10 Kd, replicates": "1.62 1.82 2.24", "log10 Kd (nM), mean": "1.89", "empty controls": "2/9 (4.69)"}
{"changes": "G103I+F105S+D106F", "log10 Kd, replicates": "0.23 0.52 0.41", "log10 Kd (nM), mean": "0.39", "empty controls": "1/9 (3.74)"}
{"changes": "G99E+D106P+S107M", "log10 Kd, replicates": "n.d. n.d. n.d.", "log10 Kd (nM), mean": "n.d.", "empty controls": "0/9"}
{"changes": "Y52H+D62Y", "log10 Kd, replicates": "n.d. n.d. n.d.", "log10 Kd (nM), mean": "n.d.", "empty controls": "0/9"}
{"changes": "L29H+T58K+Y60C", "log10 Kd, replicates": "n.d. n.d. n.d.", "log10 Kd (nM), mean": "n.d.", "empty controls": "1/9 (3.47)"}
{"changes": "T28K", "log10 Kd, replicates": "0.87 0.79 0.90", "log10 Kd (nM), mean": "0.85", "empty controls": "2/9 (2.18)"}
{"changes": "V50S+F59R+Y60T", "log10 Kd, replicates": "6.23 n.d. n.d.", "log10 Kd (nM), mean": "6.23", "empty controls": "2/9 (3.55)"}
{"changes": "I34Y+T58A+Y60K", "log10 Kd, replicates": "n.d. n.d. n.d.", "log10 Kd (nM), mean": "n.d.", "empty controls": "1/9 (4.09)"}
{"changes": "D62K+T104Q+S107F", "log10 Kd, replicates": "n.d. n.d. n.d.", "log10 Kd (nM), mean": "n.d.", "empty controls": "1/9 (4.14)"}
{"changes": "G26E+G99W+A102I", "log10 Kd, replicates": "n.d. n.d. n.d.", "log10 Kd (nM), mean": "n.d.", "empty controls": "0/9"}
{"changes": "F27S+Y32P+R100M", "log10 Kd, replicates": "n.d. n.d. n.d.", "log10 Kd (nM), mean": "n.d.", "empty controls": "0/9"}
{"changes": "N30M+S31W+K65C", "log10 Kd, replicates": "5.35 5.18 n.d.", "log10 Kd (nM), mean": "5.27", "empty controls": "0/9"}
{"changes": "G26Q+F59T+G61W", "log10 Kd, replicates": "n.d. 4.39 3.17", "log10 Kd (nM), mean": "3.78", "empty controls": "4/9 (3.85)"}
{"changes": "G26C+G55Q+D106T", "log10 Kd, replicates": "n.d. n.d. n.d.", "log10 Kd (nM), mean": "n.d.", "empty controls": "0/9"}
{"changes": "G33E+I34C+Y60R", "log10 Kd, replicates": "n.d. n.d. n.d.", "log10 Kd (nM), mean": "n.d.", "empty controls": "3/9 (3.93)"}
{"changes": "N30G+Y52M+S107V", "log10 Kd, replicates": "6.05 n.d. 3.49", "log10 Kd (nM), mean": "4.77", "empty controls": "3/9 (4.36)"}
{"changes": "T58H+R100D", "log10 Kd, replicates": "0.72 0.84 0.78", "log10 Kd (nM), mean": "0.78", "empty controls": "1/9 (3.41)"}
{"changes": "S35L+R56E", "log10 Kd, replicates": "n.d. n.d. n.d.", "log10 Kd (nM), mean": "n.d.", "empty controls": "1/9 (2.49)"}
{"changes": "I51M+D62E+V64F", "log10 Kd, replicates": "2.11 2.25 2.00", "log10 Kd (nM), mean": "2.12", "empty controls": "2/9 (3.61)"}
{"changes": "V64K+T104Y", "log10 Kd, replicates": "3.89 n.d. n.d.", "log10 Kd (nM), mean": "3.89", "empty controls": "1/9 (4.79)"}
{"changes": "G33Q+V50T+I51E", "log10 Kd, replicates": "n.d. n.d. n.d.", "log10 Kd (nM), mean": "n.d.", "empty controls": "1/9 (2.58)"}
{"changes": "T28W+G99W+D106E", "log10 Kd, replicates": "n.d. n.d. n.d.", "log10 Kd (nM), mean": "n.d.", "empty controls": "1/9 (2.17)"}
{"changes": "T28S+S35M+Y52D", "log10 Kd, replicates": "3.80 n.d. n.d.", "log10 Kd (nM), mean": "3.80", "empty controls": "2/9 (3.44)"}

Empty control strains, which show no peptide, gave a signal in 15% of pairings with library AAYL49; the median was 4.06 and 95% of these signals were weaker than 2.83. No background was subtracted. Also given: how often the same scFv was detected with the empty control strains, with their mean in brackets.